For one molecule, Kd results are on record in publication PMC8728441, “Biosynthesis of the redox cofactor mycofactocin is controlled by the transcriptional regulator MftR and induced by long-chain acyl-CoA species” (The Journal of Biological Chemistry, 2021).

Protein sequences, listed by entry. Tags and fused reporters are not part of them.
UniProt A0QSB5, entry or part of it: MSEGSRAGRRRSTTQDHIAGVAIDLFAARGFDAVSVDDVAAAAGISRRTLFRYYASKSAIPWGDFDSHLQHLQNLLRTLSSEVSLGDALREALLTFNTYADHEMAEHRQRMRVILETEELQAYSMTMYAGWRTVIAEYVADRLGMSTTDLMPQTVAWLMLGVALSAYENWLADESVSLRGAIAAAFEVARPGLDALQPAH

The target of this experiment is MftR (WT) (Mycolicibacterium smegmatis, UniProt A0QSB5). In words: ITC binding of acyl-CoAs to MftR. Also on record: species or system Mycobacterium smegmatis mc^2155. As to the method: ITC was performed using TA Nano ITC. MftR was loaded in the sample cell at the concentration of 16 and 250 μM acyl-CoAs (C12–C18) loaded in the syringe. To minimize the effect of buffer mismatch, the stock concentration of acyl-CoAs was prepared using ITC buffer (50 mM Hepes, 50 mM NaCl, and pH 7.5), and the pH was adjusted to within 0.05 units. In addition, MftR was buffer exchanged into ITC buffer using a PD-10 column (GE Life Sciences). The volume of the titrant added at each injection into the sample cell was 2.22 μl. The time interval between the successive injections was 180 s. The temperature of the cell was kept at 25 °C. The data obtained were fit by independent one-site model using NanoAnalyze Data Analysis, version 3.8.0, that was provided with the instrument.

A word on the Kd: it is the constant that tells how readily two partners part at equilibrium. Low values mean higher affinity, high ones lower affinity. The molecule `CCCCCCCCCCCCCC(=O)SCCNC(=O)CCNC(=O)[C@H](O)C(C)(C)COP(=O)(O)OP(=O)(O)OC[C@H]1O[C@@H](n2cnc3c(N)ncnc32)[C@H](O)[C@@H]1OP(=O)(O)O` [myristoyl-CoA] displayed a Kd of 2 to 4 µM.
